Results as given in article PMC10896721.

Amino acid sequences for entries named in this document (tags omitted). Residues count along the entry.
UniProt P43220, 24-463: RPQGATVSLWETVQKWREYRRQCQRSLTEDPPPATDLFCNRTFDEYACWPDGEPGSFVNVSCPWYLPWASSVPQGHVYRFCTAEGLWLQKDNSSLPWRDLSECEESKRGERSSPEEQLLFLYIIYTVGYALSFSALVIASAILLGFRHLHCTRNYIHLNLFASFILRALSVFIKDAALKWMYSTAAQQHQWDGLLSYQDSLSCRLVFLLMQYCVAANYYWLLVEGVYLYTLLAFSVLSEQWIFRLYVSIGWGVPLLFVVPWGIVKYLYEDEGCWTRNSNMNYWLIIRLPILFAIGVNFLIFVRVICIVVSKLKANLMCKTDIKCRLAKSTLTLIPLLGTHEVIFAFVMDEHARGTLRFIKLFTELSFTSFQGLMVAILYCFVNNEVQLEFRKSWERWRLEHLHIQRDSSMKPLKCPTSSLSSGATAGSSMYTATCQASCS

Molecular target: human GLP-1R (glucagon-like peptide-1 receptor) (human) (UniProt P43220)

EC50 of cAMP accumulation in CHO-K1 cells expressing human GLP-1R: 4.1 pM
Substance: Native GLP-1 (glucagon-like peptide-1) (ligand)
